According to IntAct's records for PubMed 35512704:

B1: RAC-alpha serine/threonine-protein kinase (Homo sapiens), P31749 (parent)
chain: MSDVAIVKEGWLHKRGEYIKTWRPRYFLLKNDGTFIGYKERPQDVDQREAPLNNFSVAQCQLMKTERPRPNTFIIRCLQWTTVIERTFHVETPEEREEWTTAIQTVADGLKKQEEEEMDFRSGSPSDNSGAEEMEVSLAKPKHRVTMNEFEYLKLLGKGTFGKVILVKEKATGRYYAMKILKKEVIVAKDEVAHTLTENRVLQNSRHPFLTALKYSFQTHDRLCFVMEYANGGELFFHLSRERVFSEDRARFYGAEIVSALDYLHSEKNVVYRDLKLENLMLDKDGHIKITDFGLCKEGIKDGATMKTFCGTPEYLAPEVLEDNDYGRAVDWWGLGVVMYEMMCGRLPFYNQDHEKLFELILMEEIRFPRTLGPEAKSLLSGLLKKDPKQRLGGGSEDAKEIMQHRFFAGIVWQHVYEKKLSPPFKPQVTSETDTRYFDEEFTAQMITITPPDQDDSMECVDSERRPHFPQFSYSASGTA
partner: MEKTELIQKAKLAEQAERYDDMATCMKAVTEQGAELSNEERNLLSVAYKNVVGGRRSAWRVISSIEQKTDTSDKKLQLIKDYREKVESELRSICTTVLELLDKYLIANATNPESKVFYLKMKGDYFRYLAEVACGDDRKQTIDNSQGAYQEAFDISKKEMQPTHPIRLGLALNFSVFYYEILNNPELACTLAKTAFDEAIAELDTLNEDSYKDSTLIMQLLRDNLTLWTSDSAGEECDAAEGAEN
B2: RAC-alpha serine/threonine-protein kinase (Homo sapiens), P31749 (parent)
chain: B1 chain
partner: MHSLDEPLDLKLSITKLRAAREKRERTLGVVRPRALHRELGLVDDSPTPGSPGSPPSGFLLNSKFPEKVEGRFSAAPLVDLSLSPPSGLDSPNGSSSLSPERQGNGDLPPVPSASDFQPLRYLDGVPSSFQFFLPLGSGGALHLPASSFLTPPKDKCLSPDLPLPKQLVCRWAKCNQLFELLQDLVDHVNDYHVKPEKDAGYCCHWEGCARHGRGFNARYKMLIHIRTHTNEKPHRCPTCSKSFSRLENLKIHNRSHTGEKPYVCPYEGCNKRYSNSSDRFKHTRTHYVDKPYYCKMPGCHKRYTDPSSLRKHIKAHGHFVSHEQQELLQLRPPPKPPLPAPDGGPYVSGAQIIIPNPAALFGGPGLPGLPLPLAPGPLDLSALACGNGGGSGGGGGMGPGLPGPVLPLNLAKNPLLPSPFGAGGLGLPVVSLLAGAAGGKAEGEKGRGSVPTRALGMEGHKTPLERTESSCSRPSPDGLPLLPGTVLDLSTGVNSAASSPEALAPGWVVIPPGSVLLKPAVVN
B3: RAC-alpha serine/threonine-protein kinase (Homo sapiens), P31749 (parent)
chain: B1 chain
partner: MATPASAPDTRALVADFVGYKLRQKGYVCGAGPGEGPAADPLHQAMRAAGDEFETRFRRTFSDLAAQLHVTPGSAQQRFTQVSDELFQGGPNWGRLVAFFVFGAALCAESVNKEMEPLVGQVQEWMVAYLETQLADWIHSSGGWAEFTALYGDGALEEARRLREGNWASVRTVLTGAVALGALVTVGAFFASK
B4: RAC-alpha serine/threonine-protein kinase (Homo sapiens), P31749 (parent)
chain: B1 chain
partner: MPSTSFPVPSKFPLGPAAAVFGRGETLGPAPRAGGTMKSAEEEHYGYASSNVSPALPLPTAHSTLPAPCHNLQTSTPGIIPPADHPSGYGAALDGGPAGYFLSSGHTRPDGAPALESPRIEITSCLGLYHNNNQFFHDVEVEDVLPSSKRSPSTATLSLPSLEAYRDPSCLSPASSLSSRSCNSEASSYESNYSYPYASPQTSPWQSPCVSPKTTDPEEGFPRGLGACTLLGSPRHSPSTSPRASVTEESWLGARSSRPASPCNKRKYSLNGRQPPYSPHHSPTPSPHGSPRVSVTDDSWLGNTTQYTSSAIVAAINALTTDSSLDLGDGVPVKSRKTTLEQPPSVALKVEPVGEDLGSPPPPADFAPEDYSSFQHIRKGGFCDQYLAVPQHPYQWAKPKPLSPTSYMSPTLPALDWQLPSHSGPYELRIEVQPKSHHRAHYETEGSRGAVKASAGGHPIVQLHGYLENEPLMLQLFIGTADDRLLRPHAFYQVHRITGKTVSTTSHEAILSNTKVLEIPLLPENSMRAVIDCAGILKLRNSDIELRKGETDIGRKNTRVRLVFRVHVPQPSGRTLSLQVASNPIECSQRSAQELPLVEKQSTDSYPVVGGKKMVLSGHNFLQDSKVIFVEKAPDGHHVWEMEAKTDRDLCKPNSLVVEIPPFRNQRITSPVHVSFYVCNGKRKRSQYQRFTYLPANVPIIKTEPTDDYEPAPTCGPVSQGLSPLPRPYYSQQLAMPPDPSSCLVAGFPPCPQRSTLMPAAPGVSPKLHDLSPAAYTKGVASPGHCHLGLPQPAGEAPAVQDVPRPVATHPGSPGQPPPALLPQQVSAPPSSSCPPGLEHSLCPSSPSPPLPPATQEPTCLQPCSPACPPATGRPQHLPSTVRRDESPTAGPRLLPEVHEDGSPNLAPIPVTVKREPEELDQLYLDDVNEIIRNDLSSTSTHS
B5: RAC-alpha serine/threonine-protein kinase (Homo sapiens), P31749 (parent)
chain: B1 chain
partner: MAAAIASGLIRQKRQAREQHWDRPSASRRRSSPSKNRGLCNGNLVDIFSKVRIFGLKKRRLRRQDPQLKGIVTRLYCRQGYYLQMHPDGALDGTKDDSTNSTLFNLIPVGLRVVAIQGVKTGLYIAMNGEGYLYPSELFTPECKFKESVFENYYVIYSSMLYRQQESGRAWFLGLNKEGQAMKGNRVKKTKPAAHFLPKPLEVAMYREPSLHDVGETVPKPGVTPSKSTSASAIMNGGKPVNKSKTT
B6: RAC-alpha serine/threonine-protein kinase (Homo sapiens), P31749 (parent)
chain: B1 chain
partner: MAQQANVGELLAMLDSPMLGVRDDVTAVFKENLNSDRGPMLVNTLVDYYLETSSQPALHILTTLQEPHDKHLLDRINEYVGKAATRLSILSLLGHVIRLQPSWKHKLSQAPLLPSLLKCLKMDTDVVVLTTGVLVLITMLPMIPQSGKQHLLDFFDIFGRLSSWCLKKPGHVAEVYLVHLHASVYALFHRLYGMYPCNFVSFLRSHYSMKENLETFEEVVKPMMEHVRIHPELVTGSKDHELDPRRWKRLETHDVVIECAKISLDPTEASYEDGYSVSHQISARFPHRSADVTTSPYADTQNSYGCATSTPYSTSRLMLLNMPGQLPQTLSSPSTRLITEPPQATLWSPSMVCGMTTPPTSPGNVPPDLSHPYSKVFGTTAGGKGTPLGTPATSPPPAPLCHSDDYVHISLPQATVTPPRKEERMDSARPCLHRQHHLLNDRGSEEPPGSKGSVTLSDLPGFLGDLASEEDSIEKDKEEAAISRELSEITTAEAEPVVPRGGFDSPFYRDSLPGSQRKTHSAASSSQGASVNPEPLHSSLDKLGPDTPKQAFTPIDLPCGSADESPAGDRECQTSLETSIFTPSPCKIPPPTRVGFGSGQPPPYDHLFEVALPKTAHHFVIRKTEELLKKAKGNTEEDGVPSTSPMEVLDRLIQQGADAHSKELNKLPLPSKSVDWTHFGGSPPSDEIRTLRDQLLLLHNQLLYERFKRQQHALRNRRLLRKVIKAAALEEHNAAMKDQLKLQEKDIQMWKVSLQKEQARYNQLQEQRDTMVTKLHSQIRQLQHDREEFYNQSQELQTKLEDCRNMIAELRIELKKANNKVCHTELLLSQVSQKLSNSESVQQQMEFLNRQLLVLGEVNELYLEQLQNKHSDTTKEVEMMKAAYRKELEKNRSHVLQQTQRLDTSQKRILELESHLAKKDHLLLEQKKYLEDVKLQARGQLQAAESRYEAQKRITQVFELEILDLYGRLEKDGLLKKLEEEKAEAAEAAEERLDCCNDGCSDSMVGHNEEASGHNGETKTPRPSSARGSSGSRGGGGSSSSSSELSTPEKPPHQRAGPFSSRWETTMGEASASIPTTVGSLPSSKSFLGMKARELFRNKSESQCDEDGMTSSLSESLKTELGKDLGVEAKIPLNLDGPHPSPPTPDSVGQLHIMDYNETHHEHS

Variants of: B1
Conditions: with 1433t_human YWHAQ

effect of a mutation on the interaction	Variant
with no effect	E17K

Variants of: B2
Conditions: with glis2_human GLIS2, Q9BZE0

effect of a mutation on the interaction	Variant
with no effect	E17K

Variants of: B3
Conditions: with b2cl2_human BCL2L2, Q92843

effect of a mutation on the interaction	Variant
disrupting interaction strength	E17K

Variants of: B4
Conditions: with nfac1_human NFATC1, O95644

effect of a mutation on the interaction	Variant
with no effect	E17K

Variants of: B5
Conditions: with fgf14_human FGF14, Q92915

effect of a mutation on the interaction	Variant
with no effect	E17K

Variants of: B6
Conditions: with tsc1_human TSC1, Q92574

effect of a mutation on the interaction	Variant
with no effect	E17K
